Like-named read-outs stand apart in the source and are kept apart here.
Columns and labels:
[1] = system: BHK(DMN) Ts cells
[2] = system: Sarcoma S-180 monolayers; settings: reincubation up to 24 hours
[3] = reincubation 24 hours at 32°, Normal

Substance | Radioactivity In Cells ([1]; 32°, Transformed) | Radioactivity In Medium ([1]; 32°, Transformed) | Radioactivity In Cells ([1]; 38.5°, Normal) | Radioactivity In Medium ([1]; 38.5°, Normal) | Radioactivity In Cells ([1]; 38.5°, Transformed) | Radioactivity In Medium ([1]; 38.5°, Transformed) | Radioactivity In Cells [1, 3] | Radioactivity In Medium [1, 3] | release of labeled breakdown product into the medium (acid soluble radioactivity) ([2]; 0.2 μg/ml, MW 115,000, 60 min load) | cell-associated acid soluble radioactivity [2]
poly-D-lysine [PDL] | 30.1 ng ^125 I-PLL per mg Cell Prot | 3.63 ng ^125 I-PLL per mg Cell Prot | 20.1 ng ^125 I-PLL per mg Cell Prot | 4.87 ng ^125 I-PLL per mg Cell Prot | 35.7 ng ^125 I-PLL per mg Cell Prot | 6.06 ng ^125 I-PLL per mg Cell Prot | 21.5 ng ^125 I-PLL per mg Cell Prot | 3.29 ng ^125 I-PLL per mg Cell Prot |  | 
poly-L-lysine [PLL] | 11.3 ng ^125 I-PLL per mg Cell Prot | 20.4 ng ^125 I-PLL per mg Cell Prot | 11.8 ng ^125 I-PLL per mg Cell Prot | 20.6 ng ^125 I-PLL per mg Cell Prot | 9.7 ng ^125 I-PLL per mg Cell Prot | 26.9 ng ^125 I-PLL per mg Cell Prot | 12.4 ng ^125 I-PLL per mg Cell Prot | 13.6 ng ^125 I-PLL per mg Cell Prot | increases linearly between 1 and 12 hours | remained essentially constant over a period of 24 hours

— patent publication US4701521A, “Method of effecting cellular uptake of molecules” (The Trustees of Boston University, priority 1979, dated 1987)
